# Measured affinities in a library of Ab-14 heavy chain variants

Source: Li et al. 2023 (doi:10.1038/s41467-023-39022-2), MIT Lincoln Laboratory and A-Alpha Bio; data file from the FLAb repository.

Antigen: PDVDLGDISGINAS, a 14-residue peptide of the SARS-CoV-2 spike HR2 region.

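The starting antibody came from a phage panning campaign against this peptide. This is the validation round: designs drawn from the data on random variants, tested in the same kind of assay. Several design methods are mixed in this list. AlphaSeq pools MATa yeast showing the antibodies with MATalpha yeast showing the peptide. After mating in shaken culture at 30 °C for 16 h, diploids were selected and their barcode pairs sequenced. Scores were corrected for input abundance and mapped to Kd with protein pairs of known affinity run in the same pool. There are six technical replicates.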

Each scFv is VH, three GGGGS repeats, VL, as in the parent Ab-14, and differs from it in the CDRs of the heavy chain only.
VH: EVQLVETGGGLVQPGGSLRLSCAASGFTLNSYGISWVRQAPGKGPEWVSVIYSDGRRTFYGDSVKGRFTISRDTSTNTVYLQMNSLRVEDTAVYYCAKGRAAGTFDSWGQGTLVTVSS
VL: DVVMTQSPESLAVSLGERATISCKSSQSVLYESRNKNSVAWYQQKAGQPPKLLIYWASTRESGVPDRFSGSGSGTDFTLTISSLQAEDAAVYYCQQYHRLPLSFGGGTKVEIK

The parent's heavy chain CDRs are GFTLNSYGIS, VIYSDGRRTFYGDSVK, GRAAGTFDS; each variant's own CDRs replace them letter for letter. This list holds designs with at most six substitutions. Kd is apparent (estimated from mating counts) and averaged on the log scale over replicates with a signal. Smaller is tighter. "nd" marks a missing value. The strain was present, yet no cells mated with the target were sequenced in any replicate, which points to weak or no binding.

For GFTLNSYGGS, VIYSDGRRTFYGDSVK, GRAAGTFDS, the assay gave 2.4 nM (6 of 6 replicates).
For GFTLNMYGIS, VIYSDGRRTFYGDSVK, GRAAGTMDS, the assay gave nd (0 of 6 replicates).
For GFTLQSYGIS, VIYSDGRRTFYGDSVK, GRWAGTFDS, the assay gave 2.8 nM (1 of 6 replicates).
For GFNLNSYGIS, VIYSDGRRTFYGDQVK, GEAAGTFDS, the assay gave 7.3 nM (1 of 6 replicates).
For GFDLNSYGIS, VIYSDGRRTFYGDSVK, GLAAGWFNS, the assay gave nd (0 of 6 replicates).
For GFTLNSYGIS, VIYSDGRVTFYGDSVK, GKLAGTFDS, the assay gave nd (0 of 6 replicates).
For GFGLNEYGIS, VIYSDGRRTFYGDSVK, GKAAGTFDS, the assay gave 2.0 nM (6 of 6 replicates).
For MFSLNSYGIS, VIYSDGRRTFYGDSVK, GQEAGTFDT, the assay gave nd (0 of 6 replicates).
For GFTLNSYGIS, VIYSDGRRTFYGDSVK, GKQAGNFDS, the assay gave nd (0 of 6 replicates).
For GFTLNDYGIS, VIYSDGRRTFYGDSVK, GREAGTFDA, the assay gave 10 nM (6 of 6 replicates).
For GFSLNSYGIS, VIYSDGRRTFYGDSVK, GQNAGTFDS, the assay gave 3.0 nM (6 of 6 replicates).
For GFDLNSYGIS, VIYSDGRRTFYIDSVK, GHAAGTFDS, the assay gave 8.8 nM (6 of 6 replicates).
For GYTLNSYGIS, VIYSDGRRQAYSDSVK, GRAAGTFDS, the assay gave 42 nM (4 of 6 replicates).
For GFHLNSYGIS, VIYSDGRRTFYDDSVK, GKLAGTFDS, the assay gave 50 nM (5 of 6 replicates).
For GFSLNEYGIS, VIYSDGRRTFYMDQVK, GRTAGTFDS, the assay gave nd (0 of 6 replicates).
For PFSLNSYGIS, VIYSDGRRTFYADSVK, GRTAGTFDS, the assay gave 19 nM (6 of 6 replicates).
For GFTLGSYGIS, VIYSDGRRTFYGDSVK, GRNAGTFDS, the assay gave 13 nM (6 of 6 replicates).
For GFGLNSYGIS, VIYSDGRRTFYADSVK, GWTAGTFDS, the assay gave 2.6 nM (5 of 6 replicates).
For GFSLNSYGIS, VIYSDGRRTFYTDSVK, GKNAGTFDS, the assay gave 3.8 nM (6 of 6 replicates).
For GFTLRSYGIS, VIYSDGRRTQYGDSVK, GRLMGTSDS, the assay gave nd (0 of 6 replicates).
For GFSLNEYGIS, VIYSDGRRTFYGDSVK, GFAAGTFDR, the assay gave 8.9 nM (6 of 6 replicates).
For GFNLNSYGIS, VIYSDGRRTFYIDPVK, GRQAGTFDS, the assay gave nd (0 of 6 replicates).
For HFTLNSYGIS, VIYADGRRTFYGDSVK, GEAAGTFDS, the assay gave 2.9 nM (6 of 6 replicates).
For GFSLNDYGIS, VIYSDGRRTFYMDWVK, GRTAGTFDS, the assay gave nd (0 of 6 replicates).
For GFDLNEYGIS, VIYADGRRTFYADSVK, GEAAGTFDV, the assay gave 810 pM (6 of 6 replicates).
For GFTLNDYGIS, VMYSDGRRTFYGDDVK, GRAALTFDS, the assay gave 83 nM (1 of 6 replicates).
For GFDLNSYGIS, VIYSDGRRTFYGDSVK, GPAAGTFNS, the assay gave nd (0 of 6 replicates).
For GFTLYSYGIS, VIASDGRRTFYSDSVK, GRAGMTFDN, the assay gave nd (0 of 6 replicates).
For GFTLQSYGIS, VIYSDGRKTAYGDSVK, GRAAGTFDS, the assay gave 32 nM (1 of 6 replicates).
For GFSLNEYGIS, VIYSDGRRTFYGDSVK, GPAAGTFDS, the assay gave nd (0 of 6 replicates).
For GFTLNDYGIS, VIYSDGRRTQYIDSVK, GRAGGTFDS, the assay gave 55 nM (6 of 6 replicates).
For GFELNSYGIS, VIYADGRRTFYGDSVK, GQAAGTFDQ, the assay gave 770 pM (6 of 6 replicates).
For GFPLNSYGIS, VIYSDGRRTAYGPSVK, GRNAGTFDS, the assay gave 17 nM (6 of 6 replicates).
For GLTLNSYGIS, VIYSDGRRTFYSDSVK, GRAGGTFDS, the assay gave 210 nM (3 of 6 replicates).
For GFDLNEYGIS, VIYSDGRRTFYGDSVK, GRAAGHFDS, the assay gave 2.1 µM (2 of 6 replicates).
For GFTLNSYGIS, VIYSDGRRTFYGDSVK, GRAAKTFDD, the assay gave nd (0 of 6 replicates).
For GFTLNEYGIS, VIYADGRRTFYGDSVK, GRAAGTFIS, the assay gave 57 nM (3 of 6 replicates).
For GFTENSFGRS, VIYSDGRRTMYGDSVK, GMAAGTFDS, the assay gave nd (0 of 6 replicates).

As a blank, each scFv also met three strains without target: over all heavy chain designs, 1% of these pairings were detected, typically at 120 nM and seldom below 7.0 nM. Values of this round are not directly comparable with the first-round values of the same sequences. The authors averaged sequences with at least three values out of six and counted those with two or fewer as poor binders. The parent sequence was in this pool as ten entries: three were never detected, three once, and four in most replicates, with averages from 2.2 nM to 240 nM.